Among the data in article PMC3220786 (ACS Chemical Biology, 2011) are CC50 values, retold here.

This series can be described thus: Cytotoxicity, Ba/F3 cells. Type of series: cell-based, murine. The conditions noted are these: mouse.

For orientation: CC50 means the concentration that lowers cell viability or growth by half. A higher CC50 goes with better tolerance by the cells.

Each structure is given as a SMILES string.

As for `CC1=C[C@H]2O[C@@H]3C[C@H]4OC(=O)/C=C\C=C\C(=O)OCC/C(C)=C/C(=O)OC[C@@]2(CC1)[C@]4(C)[C@]31CO1` [Verrucarin J], the cytotoxic concentration (CC50) at 3 days was determined as 29 nM.
